“Also recorded” adds a separate entry of the source.
System: brain levels of 2-AG, arachidonic acid, NAEs, MAGs
Assay: Measurement of brain lipids in treated mice
Format: in vivo, mouse

## O=C(Oc1ccc([N+](=O)[O-])cc1)N1CCC(C(O)(c2ccc3c(c2)OCO3)c2ccc3c(c2)OCO3)CC1 [JZL184]
16 mg kg^-1 i.p., 0.5-24 h
  brain NAEs including anandamide, other MAGs and free fatty acids, time course: unchanged
  brain arachidonic acid, time course: rapid and sustained decrease
16 mg kg^-1 i.p., 24 h
  brain 2-AG levels at 24 h: returned to near-control levels; also recorded: returned to baseline
4-40 mg kg^-1 i.p., 4 h
  brain arachidonic acid levels: significant reductions
  brain levels of other MAGs (PG, OG) and palmitic and oleic acid: not significantly altered
All doses tested (4-40 mg kg^-1 i.p.), 4 h
  brain anandamide (AEA) levels: without altering anandamide; also recorded: unaffected
Doses below 40 mg kg^-1 i.p., 4 h
  brain PEA and OEA levels: did not change
